# Yeast mating assay B: variants of the scFv Ab-14

Reference: Li et al. 2023, doi:10.1038/s41467-023-39022-2. File: FLAb, binding data.

Binding partner: SARS-CoV-2 spike HR2 peptide, sequence PDVDLGDISGINAS.

Ab-14 is the parent antibody, in scFv form: VH, then a 15-residue (Gly4Ser)3 linker, then VL. The heavy chain is unchanged in all variants.
VH: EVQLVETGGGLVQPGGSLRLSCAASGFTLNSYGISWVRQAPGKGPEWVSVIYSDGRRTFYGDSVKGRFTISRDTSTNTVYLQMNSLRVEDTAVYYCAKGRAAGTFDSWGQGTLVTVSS
VL: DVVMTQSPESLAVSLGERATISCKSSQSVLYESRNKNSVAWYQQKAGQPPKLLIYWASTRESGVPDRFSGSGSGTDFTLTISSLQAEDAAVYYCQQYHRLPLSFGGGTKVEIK

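These sequences belong to a second round, designed from the earlier measurements on random variants of the parent. Group labels follow the data file (Ctrl: baseline library sampled from a position-specific scoring matrix, with some repeated check sequences; En: ensemble of fine-tuned language models; GP: Gaussian process model; HC: hill climbing; Gen: genetic algorithm; Gibbs: Gibbs sampling; a sequence that several methods proposed may carry one label only). In AlphaSeq, yeast of one mating type display the scFv and yeast of the other type display the target. The frequency of each diploid, read from paired DNA barcodes, reflects how well the two displayed proteins bind. Read counts were normalised to the haploid input and turned into Kd by a linear fit to BCL2-family pairs of known affinity, for each replicate. Mating was done six times.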

Variants are written as CDR1, CDR2 and CDR3 of the light chain (limits as in the source). Parent: KSSQSVLYESRNKNSVA, WASTRES, QQYHRLPLS.
Scale: log10 of Kd in nM, estimated from mating counts; low values are strong binders.
Replicates are averaged; those with no signal do not enter the mean.
An entry "no signal" has no value in the source: the pair was not observed among the diploids in any replicate. This suggests poor binding but is not conclusive.
The authors averaged sequences with at least three values out of six and counted those with two or fewer as poor binders.
Background: pairings of all light chain designs with three empty control strains gave a value in 4% of cases (median 2.64, 5th percentile 1.59). Values in that range, when seen in few replicates, are hard to tell from nonspecific mating. For each scFv, signals with the empty controls are counted beside the result.
A sequence measured in both rounds can read differently, since the two assays cover different ranges.

mean, log10 nM | detected | control signals | CDR-L1 | CDR-L2 | CDR-L3 | group
0.04 | 6 of 6 | 3 of 18 | YLSQSVLYESRNKNSVA | NASTREM | QQYHRLPLS | GP_Gen
0.67 | 6 of 6 | 1 of 18 | KMMQGVLYESRVKNSVA | GASTRES | QQYHRLPLS | GP_HC
0.36 | 6 of 6 | 0 of 18 | KISGQYRYEQLSKNSIA | EAQTRLK | QQYHRLPLS | En_HC
1.10 | 6 of 6 | 2 of 18 | KSIQSVLYESRNKNSVA | EASTRES | QQYHRLPLS | Ctrl
1.00 | 6 of 6 | 2 of 18 | TLHANIEYGGIMWSSIA | DNVQRAN | QQYQRLPLG | En_Gibbs
0.30 | 6 of 6 | 0 of 18 | KIMQSYLGEWRNCNSVA | NASQRES | QQYHRLPLS | GP_Gibbs
0.60 | 6 of 6 | 1 of 18 | KIGQMVTEESRNKNSIA | QMTTREG | QQYHRLPLS | En_HC
1.36 | 1 of 6 | 0 of 18 | MLSMVTEGMARKHSSVA | DNSTRES | QQYDRLPLS | En_Gen
0.07 | 6 of 6 | 2 of 18 | KSAQSDLNESRNFNSVA | DASTRES | QQYHRLPLS | GP_Gibbs
-0.35 | 6 of 6 | 0 of 18 | KVSQSVLYESRMKNSVA | DASTRSS | QQYHRLPLE | GP_HC
-0.04 | 6 of 6 | 1 of 18 | KLQQSEGYESRNQNSVA | AASQREE | QQYHRLPLS | GP_Gibbs
1.49 | 6 of 6 | 0 of 18 | KISMVTGHMSMSKNNVA | EMETREN | QQYDRLPLS | En_Gen
0.76 | 1 of 6 | 0 of 18 | RITILSDYYMENRSAIA | ETSLKAH | QQYFMLPLT | En_Gibbs
1.22 | 6 of 6 | 1 of 18 | KISINQSNYGGMRSAIA | NTNLARM | QQYFHLPLM | En_Gibbs
0.85 | 6 of 6 | 0 of 18 | MLDQMDGQMGGNTNNIA | DVVENRI | QQYHRLPLS | En_Gibbs
0.28 | 6 of 6 | 0 of 18 | KLSQSVLYESRIKNSVA | HASTRES | QQYHRLPLS | Ctrl
1.42 | 3 of 6 | 0 of 18 | MSSQSVLYESNNDNSVA | WASTRES | QQYHRLPLS | Ctrl
1.64 | 6 of 6 | 1 of 18 | KLMQSTLYESRNKNSVA | WASTRLS | QQYHRLPLS | GP_HC
0.27 | 6 of 6 | 0 of 18 | KLYSAKQGDIAQMQNIA | AADVLTQ | QQYNKLPLS | En_Gibbs
0.12 | 6 of 6 | 0 of 18 | MISDLTMYGSRNINSVA | DLSTRGS | QQYHRLPLS | En_HC
0.49 | 6 of 6 | 0 of 18 | KVLQSVKYEGRNKNSVA | HASTRED | QQYHRLPLS | GP_HC
0.64 | 6 of 6 | 0 of 18 | MMSYGWLYGSRNKRNVA | DRETRER | QQYDRLPLS | En_HC
no signal | 0 of 6 | 0 of 18 | KSSQSVLYESRNKNSVS | WASTRES | QQYHRLWLG | Ctrl
3.15 | 3 of 6 | 3 of 18 | HIDDFEFSEGEKWNAIA | QDATRLQ | QSYQRLPLA | En_Gibbs
2.00 | 4 of 6 | 0 of 18 | MISQLYNMGQFAINSVA | QASQRCN | QQYDRLPLM | En_Gen
0.90 | 6 of 6 | 0 of 18 | MISQVMNTLTRQGNNVA | DLTEREK | QQYFRLPLS | En_Gen
2.11 | 3 of 6 | 0 of 18 | KLSQSQLYEDRNKNSVA | NASQRES | QQYHRLPLS | GP_Gen
-0.17 | 6 of 6 | 3 of 18 | KMSMSWPYDSPNKNSVA | NASTRMQ | QQYHRLPLS | GP_Gibbs
1.44 | 6 of 6 | 1 of 18 | MLTWGDDHTTGHQNAIA | HAHERNT | QQYALLPLT | En_Gibbs
0.47 | 6 of 6 | 0 of 18 | KLSQSSLYESRMKNSVA | NASTRLS | QQYHRLPLS | GP_Gen
0.07 | 6 of 6 | 0 of 18 | KIDQWELGESVNKNSVA | NASTRME | QQYHRLPLS | GP_Gibbs
1.64 | 4 of 6 | 0 of 18 | QISLNGWDGEPYEYAVA | EGSIADA | QQYSRLPLS | En_Gibbs
1.49 | 6 of 6 | 0 of 18 | KSSDGVLYEDDNKNSVA | WASTRES | QQYHRLPLS | Ctrl
0.59 | 6 of 6 | 0 of 18 | KQSQSVLYESSNKNQVA | DASTRES | QQYHRLPLS | GP_HC
1.16 | 6 of 6 | 3 of 18 | KLRQVTGYESYAKNSVA | QTSTRVS | QDYHRLPLS | En_HC
1.03 | 6 of 6 | 1 of 18 | HSSGSVLYESRNGNSVA | NASTRES | QQYHRLPLS | GP_HC
0.14 | 6 of 6 | 0 of 18 | KLSQSVDYESRQKNSVA | NAQTRES | QQYHRLPLS | GP_Gibbs
0.22 | 6 of 6 | 5 of 18 | KVSQSELYESRNKNSVA | NASQREQ | QQYHRLPLS | GP_Gen
0.30 | 6 of 6 | 1 of 18 | ALRQKGFELHGDRQSIA | HSDTRAA | QQYSMLPLA | En_Gibbs
2.36 | 2 of 6 | 0 of 18 | NLGFVDDNDNQMMMSIA | DENTVGE | QQYNRLPLA | En_Gibbs
1.67 | 6 of 6 | 1 of 18 | ILAEASDDITEKQNSIA | ETQQVYS | QQYHRLPLA | En_Gibbs
0.06 | 6 of 6 | 0 of 18 | KFSISYLGESRNKNSVA | EASTRES | QQYHRLPLS | GP_HC
-0.13 | 6 of 6 | 3 of 18 | KLMQSVWYESRNKNSVA | NASTRES | QQYHRLPLS | GP_Gen
1.02 | 2 of 6 | 0 of 18 | ILYDSVGTLSRNKHSVA | DNSTRES | QQYDRLPLS | En_HC
3.24 | 1 of 6 | 1 of 18 | KSSQSVLYMSCNKNSVA | WASTRES | QQYGRLPLS | Ctrl
2.11 | 5 of 6 | 0 of 18 | MISESAMYESRNRNSVA | DNSTRED | QCYDRLPLS | En_HC
1.94 | 1 of 6 | 1 of 18 | KSSNSYLYESRNKNSVA | EASTRES | QQYHRLPLM | GP_HC
0.02 | 6 of 6 | 0 of 18 | KLPQGELYESRNKNSVA | QASVRES | QQYHRLPLS | GP_HC
-0.25 | 6 of 6 | 0 of 18 | KSWHSVDYTMRNKNSVA | DASTRES | QQYHRLPLS | Ctrl
0.33 | 6 of 6 | 0 of 18 | ALYDVTRMESNKKNSIA | DMSTRES | QQYHRLPLS | En_HC
1.91 | 2 of 6 | 2 of 18 | IVSQLMLWGMHAKNSIA | EASTRLN | QQYDRLPLF | En_Gen
0.37 | 6 of 6 | 4 of 18 | KMLQSHLYESRNKNSVA | NASTRET | QQYHRLPLS | GP_Gibbs
-0.12 | 6 of 6 | 2 of 18 | KVMQSVLYESRNKNNVA | NASTREL | QQYHRLPLS | GP_Gibbs
-0.12 | 6 of 6 | 2 of 18 | KMSQSVLMEHRNSNSVA | DASLRES | QQYHRLPLS | GP_HC

Top 6 of the variants detected in all replicates, tightest first:

CDR-L1,CDR-L2,CDR-L3,group,"mean, log10 nM",detected,control signals
KVSQSVLYESRMKNSVA,DASTRSS,QQYHRLPLE,GP_HC,-0.35,6 of 6,0 of 18
KSWHSVDYTMRNKNSVA,DASTRES,QQYHRLPLS,Ctrl,-0.25,6 of 6,0 of 18
KMSMSWPYDSPNKNSVA,NASTRMQ,QQYHRLPLS,GP_Gibbs,-0.17,6 of 6,3 of 18
KLMQSVWYESRNKNSVA,NASTRES,QQYHRLPLS,GP_Gen,-0.13,6 of 6,3 of 18
KVMQSVLYESRNKNNVA,NASTREL,QQYHRLPLS,GP_Gibbs,-0.12,6 of 6,2 of 18
KMSQSVLMEHRNSNSVA,DASLRES,QQYHRLPLS,GP_HC,-0.12,6 of 6,2 of 18